One molecule from US10670605B2, “Cysteine reactive probes and uses thereof” (The Scripps Research Institute, priority 2015, dated 2020) can be followed below.

The chains behind the UniProt entries cited, without tags or fusion partners.
UniProt O75874, whole entry R132H, looked up: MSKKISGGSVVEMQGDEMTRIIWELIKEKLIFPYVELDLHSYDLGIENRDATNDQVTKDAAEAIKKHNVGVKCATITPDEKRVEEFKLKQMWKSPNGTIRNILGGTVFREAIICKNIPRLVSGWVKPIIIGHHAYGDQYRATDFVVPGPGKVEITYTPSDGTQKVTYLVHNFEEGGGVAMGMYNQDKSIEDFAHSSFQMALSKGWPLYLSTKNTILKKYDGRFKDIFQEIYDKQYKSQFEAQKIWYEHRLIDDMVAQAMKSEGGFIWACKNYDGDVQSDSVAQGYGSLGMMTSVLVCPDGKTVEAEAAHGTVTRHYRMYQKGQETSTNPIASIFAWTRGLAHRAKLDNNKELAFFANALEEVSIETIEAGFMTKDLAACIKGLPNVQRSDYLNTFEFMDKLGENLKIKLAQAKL

For the experiment, the target named is R132H-IDH1 in MUM2C cells (Homo sapiens, UniProt O75874, R132H). Kind of experiment: IDH1 2-hydroxyglutarate (2-HG) formation assay. Conditions: 50 μM, 2 h in situ, assayed ex situ.

As to `O=C(CCl)N1CCC(C(O)(c2ccccc2)c2ccccc2)CC1`, the “2-HG production by R132H cell lysates” value is “near-completely blocked”.
